According to ChEMBL document CHEMBL5252638, “Novel triphenylphosphonium amphiphilic conjugates of glycerolipid type: synthesis, cytotoxic and antibacterial activity, and targeted cancer cell delivery” (RSC Med Chem, 2023):

Species on record: Homo sapiens
Assay: Selectivity index, ratio of IC50 for human Chang liver cells to IC50 for human A549 cells

`O=c1[nH]cc(F)c(=O)[nH]1` [FLUOROURACIL] was tested, and the Ratio IC50 was 1.9.
